The values that follow are results of earlier work, collected in PMC8915595, “Revisiting the application of Immobilized Artificial Membrane (IAM) chromatography to estimate in vivo distribution properties of drug discovery compounds based on the model of marketed drugs” (ADMET & DMPK, 2020).

Chains of the proteins cited; added tags and fusions are not shown. Residues count along the entry.
UniProt P02768, 25-609: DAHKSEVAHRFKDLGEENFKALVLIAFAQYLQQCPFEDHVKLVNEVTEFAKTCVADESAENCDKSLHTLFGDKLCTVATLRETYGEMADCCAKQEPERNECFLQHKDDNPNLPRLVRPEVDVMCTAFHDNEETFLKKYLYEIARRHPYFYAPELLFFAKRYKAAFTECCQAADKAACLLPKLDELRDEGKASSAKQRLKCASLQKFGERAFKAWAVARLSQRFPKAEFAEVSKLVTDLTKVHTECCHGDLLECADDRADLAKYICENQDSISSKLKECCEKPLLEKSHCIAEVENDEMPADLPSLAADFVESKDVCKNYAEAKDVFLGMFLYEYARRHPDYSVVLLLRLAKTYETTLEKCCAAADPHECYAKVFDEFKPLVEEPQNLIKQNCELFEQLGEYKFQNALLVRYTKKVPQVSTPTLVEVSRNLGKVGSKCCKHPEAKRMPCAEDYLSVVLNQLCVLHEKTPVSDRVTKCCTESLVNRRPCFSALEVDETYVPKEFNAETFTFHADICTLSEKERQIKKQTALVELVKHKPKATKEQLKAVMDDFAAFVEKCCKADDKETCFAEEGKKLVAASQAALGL

The series addresses human serum albumin (HSA) (Homo sapiens, UniProt P02768). The following applies: cited from earlier work.

Consider `CC(=O)Nc1nnc(S(N)(=O)=O)s1` [Acetazolamide], for which the “log K HSA from ref [13]” value is reported as 1.47.
